Amino acid sequences for entries named in this document (tags omitted).
UniProt P21554, whole entry: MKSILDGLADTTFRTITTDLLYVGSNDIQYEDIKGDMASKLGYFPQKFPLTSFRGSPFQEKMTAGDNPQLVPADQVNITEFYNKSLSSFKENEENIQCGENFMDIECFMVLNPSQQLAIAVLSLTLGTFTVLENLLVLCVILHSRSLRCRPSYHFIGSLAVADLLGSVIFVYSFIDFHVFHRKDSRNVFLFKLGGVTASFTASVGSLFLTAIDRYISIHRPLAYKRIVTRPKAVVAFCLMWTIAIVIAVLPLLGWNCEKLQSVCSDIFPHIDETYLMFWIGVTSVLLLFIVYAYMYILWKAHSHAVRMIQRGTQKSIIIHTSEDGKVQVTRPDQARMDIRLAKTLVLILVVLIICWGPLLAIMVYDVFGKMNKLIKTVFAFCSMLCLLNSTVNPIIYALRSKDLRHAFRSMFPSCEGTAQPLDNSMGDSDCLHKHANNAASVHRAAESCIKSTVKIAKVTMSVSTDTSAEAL

In ChEMBL document CHEMBL1158524, “Synthesis and SAR of novel imidazoles as potent and selective cannabinoid CB2 receptor antagonists with high binding efficiencies” (Bioorg Med Chem Lett, 2010):

Molecular target: Cannabinoid receptor 1 (Homo sapiens, UniProt P21554)
Assay: Displacement of [3H]CP-55940 from human CB1 receptor expressed in CHO cells
Type: cell-based
Method in brief: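 CHO cells stably transfected with human CB1 receptor. Displacement of specific CP-55,940 binding, expressed as Ki ± SEM (nM). Values are the mean of at least three independent experiments.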

Cc1ccc(Cn2nc(C(=O)N[C@@H]3C(C)(C)[C@@H]4CC[C@@]3(C)C4)cc2-c2ccc(Cl)c(C)c2)cc1 [SR-144528]
Ki: > 1000 nM
